{"source": "patent US5602094A", "about": "“Treatment of tumors” (priority 1994, dated 1997)", "origin": "cited, not measured here", "tested_on": "phospholipase A2 (PLA2)", "details": "cited from earlier work"}
{"substance": "mellitin", "values": [{"measurement": "PLA2 enzyme activity enhancement", "value": "capacity to enhance PLA2 enzyme activity"}]}
